Test results published in ChEMBL document CHEMBL5154779, “Exploration of novel phthalazinone derivatives as potential efflux transporter inhibitors for reversing multidrug resistance and improving the oral absorption of paclitaxel” (Eur J Med Chem, 2022).

System: A549
Test: cells
Type: functional, cell-based
Settings: Homo sapiens, A549, 48 h

IC50: 46.3 µM
Compound: O=C(Nc1ccc(CCN2CCOCC2)cc1)c1nn(-c2ccc(Cl)cc2)c(=O)c2ccccc12
